# Experimental data published in IntAct's records for PubMed 16959574.
# B1: Glycogen synthase kinase-3 beta (Homo sapiens), P49841 (parent)
# chain: MSGRPRTTSFAESCKPVQQPSAFGSMKVSRDKDGSKVTTVVATPGQGPDRPQEVSYTDTKVIGNGSFGVVYQAKLCDSGELVAIKKVLQDKRFKNRELQIMRKLDHCNIVRLRYFFYSSGEKKDEVYLNLVLDYVPETVYRVARHYSRAKQTLPVIYVKLYMYQLFRSLAYIHSFGICHRDIKPQNLLLDPDTAVLKLCDFGSAKQLVRGEPNVSYICSRYYRAPELIFGATDYTSSIDVWSAGCVLAELLLGQPIFPGDSGVDQLVEIIKVLGTPTREQIREMNPNYTEFKFPQIKAHPWTKVFRPRTPPEAIALCSRLLEYTPTARLTPLEACAHSFFDELRDPNVKLPNGRDTPALFNFTTQELSSNPPLATILIPPHARIQAAASTPTNATAASDANTGDRGQTNNAASASASNST
# Variants of: B1
# Conditions: with tsc2_rat Tsc2, P49816
row,effect of a mutation on the interaction,Variant
1,increasing interaction,S9A
